We go through 26 molecules from PMC7723054.

The list shows a part of the results.

B1: hsa-mir-6869 (structured_RNA)
RNA: GGGAAGAGAGACUUGAUAUUCCGAUCCCGGUGUACGAAGUUUCAGCGGCGGCUCGGAGUACCUCUGCCGCCGCUGAAGCUUCGUGCAC
B2: hsa-mir-4680 (structured_RNA)
RNA: GGGAACGCCCCAGAUAACUAUGCGCUGAGGUGUACGAAGUUUCAGCUAGAUGUUAUAAAAAUAUAUAUCUGGCUGAAGCUUCGUGCAC
B3: NEAT1_ParasoR_ID28 (structured_RNA)
RNA: GGGAAGCCCCUGAAGUGAGUAAGUUAUCGGUGUACGAAGUUUCAGCCUGAGUUGCUUCACUUAGGCUGAAGCUUCGUGCAC
B4: hsa-mir-6077 (structured_RNA)
RNA: GGGAGGUUGGAGUCAGAAGCAUCGCCUGGGUGUACGAAGUUUCAGCCUUCGCGCUAGUUUGUUUGUGUUAAGGCUGAAGCUUCGUGCAC
B5: hsa-mir-5787 (structured_RNA)
RNA: GGGACCUGGUGGUCCUAGUUAAACCUCGGGUGUACGAAGUUUCAGCAGGUGCUAGGUCGGCCUCGGCGCUGAAGCUUCGUGCAC
B6: hsa-mir-376a-2 (structured_RNA)
RNA: GGGAAGCGCAUGACAGUGCUCUAUUGCUGGUGUACGAAGUUUCAGCUGGUUACGUGUUUGAUGGUUAAUCAGCUGAAGCUUCGUGCAC
B7: hsa-mir-8069-2_8069-1 (structured_RNA)
RNA: GGGAAGGACGUCAGCAAAACUAGCUCGCGGUGUACGAAGUUUCAGCAUCUUCCUGACCUGGUAAUAAUUAGGUGAGAAGGAUGCUGAAGCUUCGUGCAC
B8: hsa-mir-4649 (structured_RNA)
RNA: GGGACUGGAAUGCCAUGGAGGCGAUUUAGGUGUACGAAGUUUCAGCCAGAGGGGCUGGCAGUACUGCUCUGGCUGAAGCUUCGUGCAC
B9: hsa-mir-4999 (structured_RNA)
RNA: GGGAAUGUACACGGAGAGUAACCCGGAAGGUGUACGAAGUUUCAGCGUGAUAGGAUUUAUCACGCUGAAGCUUCGUGCAC
B10: hsa-mir-1304 (structured_RNA)
RNA: GGGAGCUACCAGGUUGUAUCUGACUACGGGUGUACGAAGUUUCAGCGAGAUGUGAUCCUGCCACAUCUCGCUGAAGCUUCGUGCAC
B11: hsa-mir-5687 (structured_RNA)
RNA: GGGAAAUUCCGGCACGGGCGGUUAAAAUGGUGUACGAAGUUUCAGCCUAAAUGGUACCCACUUUAUUUAGGCUGAAGCUUCGUGCAC
B12: hsa-mir-124-2 (structured_RNA)
RNA: GGGAAUAGUCCAGGCCCGGGAAUGUUACGGUGUACGAAGUUUCAGCCUUGAUUUAAUGUCAUACAAUUAAGGCUGAAGCUUCGUGCAC
B13: hsa-mir-6866 (structured_RNA)
RNA: GGGAACCAGUUAGACUGUUACCCAGGUUGGUGUACGAAGUUUCAGCGAUUCUUGAGGCUUGGAAGAGUAAGGAUCGCUGAAGCUUCGUGCAC
B14: hsa-mir-4673 (structured_RNA)
RNA: GGGAGGACCAAUGUGUAUAACGCGAUUAGGUGUACGAAGUUUCAGCUGGACCUCAGGGAAGAGGCUGGCUGAAGCUUCGUGCAC
B15: hsa-mir-4642 (structured_RNA)
RNA: GGGAAAACACCACCGUGCUGCAUUCGAUGGUGUACGAAGUUUCAGCGGCUGUGGCCUAGGGCAAGCCACAAAGCCGCUGAAGCUUCGUGCAC
B16: hsa-mir-124-1 (structured_RNA)
RNA: GGGAAAGGAGCGCACAUCGAGUAGCCAUGGUGUACGAAGUUUCAGCCUUGAUUUAAAUGUCCAUACAAUUAAGGCUGAAGCUUCGUGCAC
B17: hsa-mir-3064 (structured_RNA)
RNA: GGGACAAAUGUGAGGCCAAGGGUCUGGUGGUGUACGAAGUUUCAGCCAAAACUCCGUACAUUGCUAUUUUGCGCUGAAGCUUCGUGCAC
B18: hsa-mir-4309 (structured_RNA)
RNA: GGGAAUGUCGAACGUCACGGAUUAGCCAGGUGUACGAAGUUUCAGCUCCAGGAUCUGGGUUUUGAGGUCUUGGGCUGAAGCUUCGUGCAC
B19: hsa-mir-4290 (structured_RNA)
RNA: GGGAAGCCACCUCGGAGAUGUCUAACCAGGUGUACGAAGUUUCAGCGUCAGUCCCAAUCUGAAUCCCACCAAAAUAGGUGGUAGAGGGUUGCGCUGAAGCUUCGUGCAC
B20: hsa-mir-4657 (structured_RNA)
RNA: GGGAAGUCUCAAAGGCCGGGUUAAAACCGGUGUACGAAGUUUCAGCGCAUAUAGAGUAUAUGCGCUGAAGCUUCGUGCAC
B21: hsa-mir-8054 (structured_RNA)
RNA: GGGAGGGUAGAUCCGAAAGUUUCAAGUCGGUGUACGAAGUUUCAGCGGGUUCAAUAGAUUGCUUUAGCUGAAGCAAGCCUGCUGAAGCUUCGUGCAC
B22: hsa-mir-1277 (structured_RNA)
RNA: GGGAAACUUGACGGGGAUCACUAAGAACGGUGUACGAAGUUUCAGCCGUAUGUGUAUAUAAAUGUAUACGGCUGAAGCUUCGUGCAC
B23: hsa-mir-4458 (structured_RNA)
RNA: GGGAAUAUGGACAGGCUCCCCGUAUAUCGGUGUACGAAGUUUCAGCAGAAAGUGAAACACUAUUUUAGGUUUUGCUGAAGCUUCGUGCAC
B24: hsa-mir-193a (structured_RNA)
RNA: GGGAAACCCGAGCAGCAUCCCGAAUGUUGGUGUACGAAGUUUCAGCAGAUGAGGGUGUCGGAUCAACUGCUGAAGCUUCGUGCAC
B25: hsa-mir-766 (structured_RNA)
RNA: GGGACUGAUAACGUUGGUUUACGCAACAGGUGUACGAAGUUUCAGCUCUUUCAUUUUGGAUUUGACUGCUGAAGCUUCGUGCAC
B26: hsa-mir-520d (structured_RNA)
RNA: GGGAACUCACAAUUUCCUUCGCCGGGAUGGUGUACGAAGUUUCAGCCUUUCUGUUGUCUAAAAGAAAAGAAAGGCUGAAGCUUCGUGCAC

For the first test, the target named is T1, LIN28A (human?, UniProt Q9H9Z2 1-209).
T1 sequence: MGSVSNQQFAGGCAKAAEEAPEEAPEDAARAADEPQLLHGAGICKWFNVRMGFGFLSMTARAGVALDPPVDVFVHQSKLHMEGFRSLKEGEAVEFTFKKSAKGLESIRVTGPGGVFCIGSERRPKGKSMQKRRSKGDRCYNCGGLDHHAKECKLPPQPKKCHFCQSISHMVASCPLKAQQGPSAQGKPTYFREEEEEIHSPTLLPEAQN
Kind of test: FOREST: bead pull-down of RNA structure library v1, barcode microarray; U1A/LIN28A: 20 mM HEPES pH 7.5, 80 mM KCl, 20 mM NaCl, 10% glycerol, 2 mM DTT, 0.1 ug/uL BSA, 4 C; BG4/CIRBP/DHX36: 10 mM Tris-HCl pH 7.5, 100 mM KCl (or LiCl),; high values mean tight binding.
Molecule B1 returned a binding signal of 0.0343 z-score.
Consider B2, for which the binding signal was -0.0053 z-score.
With B3, the binding signal was 0.0158 z-score.
The molecule B4 had a binding signal of 0.00211 z-score.
B5 had a binding signal of 0.0108 z-score.
For B6, the binding signal was 0.0414 z-score.
Still for that read-out and setting: to B7 belongs 0.00845 z-score; to B8, 0.0432 z-score; to B9, -0.0076 z-score.
Regarding B10, the binding signal came out at 0.0221 z-score.
The same measure, in the same setting: to B11 belongs 0.0115 z-score; to B12, -0.0225 z-score.
In turn, B13 displayed a binding signal of -0.00211 z-score.
B14 returned a binding signal of 0.0182 z-score.
Take B15: the binding signal stood at 0.00489 z-score.
In turn, B16 showed a binding signal of -0.0205 z-score.
The molecule B17 had a binding signal of -0.00831 z-score.
The same measure, in the same setting: to B18 belongs -0.0204 z-score.
As for B19, the binding signal was -0.0113 z-score.
Molecule B20 had a binding signal of 0.0189 z-score.
With B21, the binding signal is -0.0106 z-score.
In turn, B22 yielded a binding signal of -0.00881 z-score.
Molecule B23 had a binding signal of -0.00537 z-score.
Take B24: the binding signal was -0.0201 z-score.
Regarding B25, the binding signal is 0.0248 z-score.
The same measure, in the same setting: to B26 belongs 0.032 z-score.

The next test concerns the target T2, CIRBP (Homo sapiens, UniProt Q14011 1-172).
T2 sequence: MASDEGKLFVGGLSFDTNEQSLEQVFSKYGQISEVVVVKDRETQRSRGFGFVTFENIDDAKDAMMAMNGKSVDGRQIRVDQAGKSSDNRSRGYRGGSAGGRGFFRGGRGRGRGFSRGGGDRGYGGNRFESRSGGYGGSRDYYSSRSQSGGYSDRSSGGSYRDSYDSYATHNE
Described as above.
Consider B1, for which the binding signal came to 0.0878 z-score.
Consider B2, for which the binding signal was -0.411 z-score.
B3 returned a binding signal of 0.941 z-score.
As to B4, the binding signal worked out at 0.444 z-score.
Molecule B5 registered a binding signal of -0.412 z-score.
Take B6: the binding signal worked out at 0.21 z-score.
Regarding B7, the binding signal is -0.194 z-score.
The same measure, in the same setting: with B8 the figure was -0.624 z-score; with B9, 0.657 z-score.
B10 yielded a binding signal of -0.184 z-score.
The molecule B11 yielded a binding signal of -0.99 z-score.
B12 came in with a binding signal of 0.277 z-score.
Consider B13, for which the binding signal is -0.831 z-score.
On to B14, for which the binding signal was 1.02 z-score.
Regarding B15, the binding signal came to 0.404 z-score.
Consider B16, for which the binding signal was 0.789 z-score.
B17 displayed a binding signal of -0.358 z-score.
B18 registered a binding signal of -0.303 z-score.
In turn, B19 displayed a binding signal of 0.71 z-score.
Molecule B20 had a binding signal of -0.0889 z-score.
B21 came in with a binding signal of -0.586 z-score.
Still for that read-out and setting: to B22 belongs 1.04 z-score.
Regarding B23, the binding signal is 0.322 z-score.
As to B24, the binding signal was determined as 0.372 z-score.
Same read-out and setting: with B25 the figure was -0.769 z-score; with B26, 1.27 z-score.

Another test concerns the target T3, DHX36 (Homo sapiens, UniProt Q9H2U1 1-1008).
T3 sequence: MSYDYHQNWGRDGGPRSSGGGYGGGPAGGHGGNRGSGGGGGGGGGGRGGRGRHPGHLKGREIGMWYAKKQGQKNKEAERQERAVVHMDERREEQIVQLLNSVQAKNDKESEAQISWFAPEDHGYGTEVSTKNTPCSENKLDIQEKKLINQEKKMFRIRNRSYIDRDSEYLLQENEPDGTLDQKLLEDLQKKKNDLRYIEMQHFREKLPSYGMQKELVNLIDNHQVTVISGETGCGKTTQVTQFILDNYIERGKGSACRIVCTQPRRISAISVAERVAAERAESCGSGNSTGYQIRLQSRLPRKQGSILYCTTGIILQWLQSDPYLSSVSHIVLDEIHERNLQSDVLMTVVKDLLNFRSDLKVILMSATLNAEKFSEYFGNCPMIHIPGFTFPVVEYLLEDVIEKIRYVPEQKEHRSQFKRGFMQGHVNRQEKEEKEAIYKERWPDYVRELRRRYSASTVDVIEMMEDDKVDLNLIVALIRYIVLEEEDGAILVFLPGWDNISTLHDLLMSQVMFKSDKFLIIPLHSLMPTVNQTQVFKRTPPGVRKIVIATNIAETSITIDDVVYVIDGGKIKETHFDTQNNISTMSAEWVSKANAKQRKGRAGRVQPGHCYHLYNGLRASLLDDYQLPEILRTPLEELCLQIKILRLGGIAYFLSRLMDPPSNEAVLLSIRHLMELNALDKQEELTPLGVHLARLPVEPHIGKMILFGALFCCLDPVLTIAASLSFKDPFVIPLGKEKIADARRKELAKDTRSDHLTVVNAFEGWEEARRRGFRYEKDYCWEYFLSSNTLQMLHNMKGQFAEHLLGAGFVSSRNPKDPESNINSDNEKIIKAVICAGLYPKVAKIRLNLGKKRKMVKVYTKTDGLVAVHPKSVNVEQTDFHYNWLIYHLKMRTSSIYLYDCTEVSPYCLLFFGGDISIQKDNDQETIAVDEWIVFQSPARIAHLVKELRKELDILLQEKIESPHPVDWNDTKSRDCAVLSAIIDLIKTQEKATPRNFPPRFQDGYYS
The test is described as above.
On to B1, for which the binding signal was -0.326 z-score.
B2 gave a binding signal of -0.879 z-score.
Molecule B3 yielded a binding signal of 0.259 z-score.
B4 came in with a binding signal of 0.204 z-score.
With B5, the binding signal was -0.987 z-score.
For B6, the binding signal is -0.89 z-score.
B7: the binding signal is -0.0446 z-score.
B8 gave a binding signal of 0.404 z-score.
Turning to B9, the binding signal was -0.327 z-score.
The same measure, in the same setting: with B10 the figure was -0.0771 z-score; with B11, -0.804 z-score.
The molecule B12 yielded a binding signal of -0.271 z-score.
B13: the binding signal was -0.865 z-score.
On to B14, for which the binding signal came out at 0.162 z-score.
Molecule B15 registered a binding signal of 0.793 z-score.
Consider B16, for which the binding signal is -0.636 z-score.
On to B17, for which the binding signal was -0.158 z-score.
B18 displayed a binding signal of -0.417 z-score.
For B19, the binding signal was determined as 0.278 z-score.
Turning to B20, the binding signal was determined as 0.175 z-score.
Still for that read-out and setting: to B21 belongs -0.802 z-score.
The same measure, in the same setting: with B22 the figure was -0.166 z-score; with B23, -1.09 z-score.
The molecule B24 returned a binding signal of -0.564 z-score.
Molecule B25 registered a binding signal of -0.72 z-score.
On the same count and under the same terms, with B26 the figure was -0.0616 z-score.
